We go through 11 compounds from patent US20160122307A1, “PERHYDROQUINOXALINE DERIVATIVES” (DR. AUGUST WOLFF GMBH & CO. KG ARZNEIMITTEL, priority 2013, published 2016).

Protein sequences, listed by entry. Tags and fused reporters are not part of them. Lines headed by an entry give the natural chain unless they say otherwise; changes in a name come on top.
UniProt P41145: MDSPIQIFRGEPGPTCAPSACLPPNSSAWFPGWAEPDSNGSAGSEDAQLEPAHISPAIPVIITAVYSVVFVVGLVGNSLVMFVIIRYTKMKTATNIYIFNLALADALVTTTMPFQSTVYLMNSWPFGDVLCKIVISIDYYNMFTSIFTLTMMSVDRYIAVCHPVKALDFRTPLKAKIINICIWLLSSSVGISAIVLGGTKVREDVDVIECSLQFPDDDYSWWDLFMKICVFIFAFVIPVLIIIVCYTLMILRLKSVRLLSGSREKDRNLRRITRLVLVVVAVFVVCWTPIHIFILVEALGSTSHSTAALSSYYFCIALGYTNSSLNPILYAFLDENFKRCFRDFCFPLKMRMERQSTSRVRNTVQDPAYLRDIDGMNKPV

For one assay, the target named is Human opiate κ receptors (Homo sapiens, UniProt P41145). The experiment in a line: κ opioid receptor functional assay, [35S]GTPγS binding (assay C). To be noted: for % activation functional assay at 1 μM: [35S]GTPγS binding relative to the 10 μM U-69593 response. In kind it is biochemical. In general terms: GTPγS is a poorly hydrolysed GTP analogue; its binding reports G protein activation.

The subject of assay [1] is chronic oxazolone-induced ear inflammation. The experiment in a line: In vivo model of chronic oxazolone-induced ear inflammation (assay E). Details: species or system mice. Particulars: RT-qPCR, ears.
Where [2] appears, read: read-out: EC50 (nM) [35S]GTPγS binding, Table 5, selected examples.
[3] abbreviates: read-out: GTPγS EC50, κ opioid functional activity, [35S]GTPγS binding, human recombinant κ receptors in HEK-293 membranes, EC50 grouped in three classes.
[4] abbreviates: Table 4, reference compounds from WO2009/080745.
[5] abbreviates: read-out: EC50 (nM) [35S]GTPγS binding, Table 4, reference compounds from WO2009/080745.

Molecules are shown by their SMILES. Like-named read-outs stand apart in the source and are kept apart here.

For orientation: EC50 means the concentration that produces a half-maximal response. On to `CC(=O)N1CCN(C(=O)Cc2ccc(Cl)c(Cl)c2)C2C(N3CCCC3)CCCC21` (racemic), for which, at Human opiate κ receptors (Table 5, selected examples), the “activation (% of control) at 1 μM” value is given as 101 % of control. The “% activation functional assay at 1 μM” value on Human opiate κ receptors came to 101%. Further, the values for the EC50 at Human opiate κ receptors (setting [2]) and at Human opiate κ receptors (setting [3]) were 3.96 nM and below 10 nM, respectively.

As for `CN1CCN(C(=O)Cc2ccc(Cl)c(Cl)c2)C2C1CCCC2N1CCCC1` (racemic), the “activation (% of control) at 1 μM” value at Human opiate κ receptors (Table 5, selected examples) is listed as 107 % of control. Further, the “% activation functional assay at 1 μM” value at Human opiate κ receptors is given as 107%. Also, the EC50 on Human opiate κ receptors (setting [2]) is 2.46 nM; at Human opiate κ receptors (setting [3]), below 10 nM.

For the compound `CN1CCN(C(=O)Cc2ccc(Cl)c(Cl)c2)C2C1CCCC2N1CCCC1` (centres unmarked), on Human opiate κ receptors (setting [4]), the “activation (% of control) at 1 μM” value is 107 % of control. On Human opiate κ receptors (setting [5]), the EC50 worked out at 20 nM.

For the compound `COC(=O)N1CCN(C(=O)Cc2ccc(Cl)c(Cl)c2)[C@@H]2[C@@H](N3CCCC3)CCC[C@@H]21`, in assay [1], the “mRNA expression of IL-6, TNF-α, CD117, FcεRI, myeloperoxidase, CD26E, ICAM-1” value was “down-regulated”.

With `O=C(Cc1ccc(Cl)c(Cl)c1)N1CCN[C@H]2CCC[C@H](N3CCCC3)[C@H]21` (racemic), the “activation (% of control) at 1 μM” value at Human opiate κ receptors (Table 5, selected examples) is 102 % of control. The “% activation functional assay at 1 μM” value at Human opiate κ receptors was determined as 102%. Moreover, the EC50 at Human opiate κ receptors (setting [2]) is 1.64 nM; at Human opiate κ receptors (setting [3]) it was below 10 nM.

With `CN1CCN(C(=O)Cc2ccc(Cl)c(Cl)c2)C2C1CCCC2N1CCC(O)C1` (centres unmarked), at Human opiate κ receptors (setting [4]), the “activation (% of control) at 1 μM” value is reported as 99 % of control. In addition, the EC50 at Human opiate κ receptors (setting [5]) stood at 79 nM.

For `O=C(Cc1ccc(Cl)c(Cl)c1)N1CCNC2CCCC(N3CCC(O)C3)C21` (centres unmarked), the “activation (% of control) at 1 μM” value at Human opiate κ receptors (setting [4]) is given as 108 % of control. The EC50 on Human opiate κ receptors (setting [5]) was 35 nM.

Turning to `O=C(C=Cc1ccoc1)N1CCN(C(=O)Cc2ccc(Cl)c(Cl)c2)C2C(N3CCCC3)CCCC21` (racemic) [Example 79], the EC50 at Human opiate κ receptors (setting [3]) was 10 to 100 nM.

As to `CC(=O)N1CCN(C(=O)Cc2ccc(Cl)c(Cl)c2)C2C(N3CCCC3)CCCC21` (centres unmarked), the “activation (% of control) at 1 μM” value on Human opiate κ receptors (setting [4]) is listed as 78 % of control. Moreover, the concentration for a half-maximal effect (EC50) at Human opiate κ receptors (setting [5]) stood at 330 nM.

As to `O=C(Cc1ccc(Cl)c(Cl)c1)N1CCNC2CCCC(N3CCCC3)C21` (centres unmarked), on Human opiate κ receptors (setting [4]), the “activation (% of control) at 1 μM” value is 114 % of control. Further, the EC50 on Human opiate κ receptors (setting [5]) amounted to 33 nM.

`O=CN1CCN(C(=O)Cc2ccc(Cl)c(Cl)c2)C2C1CCCC2N1CCCC1` (racemic): the “% activation functional assay at 1 μM” value on Human opiate κ receptors was 108%. Moreover, the EC50 on Human opiate κ receptors (setting [3]) lay within 10 to 100 nM.
